Results from ChEMBL document CHEMBL1138496, “Synthesis and evaluation of a novel indoledione class of long chain fatty acid elongase 6 (ELOVL6) inhibitors” (J Med Chem, 2009).

Legend:
Homo sapiens = species: Homo sapiens; test: Selectivity ratio, IC50 for human ELOVL3 to IC50 for human ELOVL6
Mus musculus = species: Mus musculus; test: Selectivity ratio, IC50 for mouse ELOVL3 to IC50 for mouse ELOVL6

Ratio IC50 (Homo sapiens): 74
Ratio IC50 (Mus musculus): 6
SMILES: Cc1[nH]n(-c2ccc(OC(F)(F)F)cc2)c(=O)c1C1(C(F)(F)F)C(=O)N(c2ccccc2)C2=C1C(=O)CC(C)(C)C2 (configuration not stated)
